Experimental findings from patent US11643403B2 (ILDONG PHARMACEUTICAL CO., LTD., priority 2019, dated 2023) are described below.

Assay [1] in a line: Intravenous glucose tolerance test (ivGTT) via intravenous administration, plasma insulin ELISA. In kind it is in vivo. Particulars: test substance 1 mg/mL/kg intravenously, glucose 0.25 g/kg iv, maximum plasma insulin. The protocol:
Before the intravenous glucose tolerance test (ivGTT) was performed, monkeys to be used in the test were fasted for 16 hours. After the fasting, fasting blood sugar was measured on the day of the test, and the monkeys were grouped to minimize blood sugar deviation. Each of the monkeys was fixed on a correction chair and anesthetized. A tube catheter was inserted into a saphenous vein of the monkey immediately before glucose administration (0 minute), and the test substance (1 mg/mL/kg) was administered intravenously. After the drug administration, glucose (0.25 g/kg, 50% dextrose solution 0.5 mL/kg) was intravenously administered through the tube catheter inserted into the vein. […] The separated plasma samples were stored in a frozen state until insulin analysis.
(§1) The frozen plasma samples were slowly thawed on ice. An ELISA test was performed according to a protocol provided with a Monkey insulin ELISA kit (LSBio, Cat No. LS-F10306). An insulin concentration was calculated by drawing a standard curve using the absorbance of the insulin standard and applying the absorbance of each measured sample thereto.
For orientation: An ELISA detects its analyte on a solid surface through an enzyme-linked reagent.

Assay [2] is described as follows: Intravenous glucose tolerance test (ivGTT) via oral administration, plasma insulin ELISA. As to conditions: test substance 50 mg/5 mL/kg orally 60 minutes before glucose 0.25 g/kg iv, maximum plasma insulin. In kind it is in vivo. The protocol: Before performing the ivGTT, the monkeys to be used in the test were fasted for 16 hours. After the fasting, fasting blood sugar was measured on the day of the test, and then the monkeys were grouped to minimize blood sugar deviation. On 60 minutes before glucose administration (−60 minutes), each of the monkeys was fixed on a correction chair, and the test substance (50 mg/5 mL/kg) was administered orally using a catheter for oral administration. The monkey fixed on the correction chair was anesthetized, and glucose (0.25 g/kg, 50% dextrose solution 0.5 mL/kg) was intravenously administered through a tube catheter inserted into the vein. […] The separated plasma samples were stored in a frozen state until insulin analysis.
as §1

`C[C@H]1CN(c2cncc(OCc3ccc(C#N)cc3F)n2)CCN1Cc1nc2ccc(C(=O)O)cc2n1C[C@@H]1CCO1` [Example 4, 2-(((S)-4-(6-((4-cyano-2-fluorobenzyl)oxy)pyrazin-2-yl)-2-methylpiperazin-1-yl)methyl)-1-(((S)-oxetan-2-yl)methyl)-1H-benzo[d] imidazole-6-carboxylic acid]: the “Monkey ivGTT (iv) insulinmax (IU/mL)” value in assay [1] is “++ (a maximum insulin concentration is greater than 250 IU/mL)”. The “Monkey ivGTT (po) insulinmax” value in assay [2] is given as “++ (a maximum insulin concentration is greater than 100 IU/mL)”.
Turning to `N#Cc1ccc(COc2cccc(C3CCN(Cc4nc5ccc(C(=O)O)nc5n4C[C@@H]4CCO4)CC3)c2)c(F)c1` [Example 3, (S)-2-((4-(3-((4-cyano-2-fluorobenzyl)oxy)phenyl)piperidin-1-yl)methyl)-3-(oxetan-2-yl-methyl)-3H-imidazo[4,5-b]pyridine-5-carboxylic acid], the “Monkey ivGTT (iv) insulinmax (IU/mL)” value in assay [1] is recorded as “++ (a maximum insulin concentration is greater than 250 IU/mL)”. The “Monkey ivGTT (po) insulinmax” value in assay [2] is reported as “++ (a maximum insulin concentration is greater than 100 IU/mL)”.
As to `N#Cc1ccc(COc2cccc(N3CCN(Cc4nc5ccc(C(=O)O)cc5n4CC4(F)CC4)CC3)c2)c(F)c1` [Example 11, 2-((4-(3-((4-cyano-2-fluorobenzyl)oxy)phenyl)piperazin-1-yl)methyl)-1-((1-fluorocyclopropyl)methyl)-1H-benzo[d]imidazole-6-carboxylic acid], in assay [2], the “Monkey ivGTT (po) insulinmax” value is “++ (a maximum insulin concentration is greater than 100 IU/mL)”.
